Patent US12201629B2 (priority 2017, dated 2025)

Assay: Example 2: pharmacokinetics of oral and intravenous buprenorphine hydrochloride under naltrexone blockade
Conditions: i.v. 0.3 mg (as base) over 15 min

In the case of `CO[C@@]12CC[C@@]3(C[C@@H]1[C@](C)(O)C(C)(C)C)[C@H]1Cc4ccc(O)c5c4[C@@]3(CCN1CC1CC1)[C@H]2O5.Cl` [Buprenorphine i.v., Buprenorphine HCl], the “Buprenorphine mean plasma concentration” value (0 h) is reported as 0.146 ng/mL, the “Buprenorphine mean plasma concentration” value (0.033 h) is reported as 0.186 ng/mL and the “Buprenorphine mean plasma concentration” value (0.083 h) is reported as 1.377 ng/mL. The “Buprenorphine mean plasma concentration” value (0.167 h) was 2.380 ng/mL, the “Buprenorphine mean plasma concentration” value (0.417 h) was 2.314 ng/mL and the “Buprenorphine mean plasma concentration” value (0.5 h) was 1.838 ng/mL. For the same compound, the “Buprenorphine mean plasma concentration” value (0.75 h) was 1.420 ng/mL, the “Buprenorphine mean plasma concentration” value (1.75 h) was 0.962 ng/mL and the “Buprenorphine mean plasma concentration” value (2.25 h) was 0.786 ng/mL. The “Buprenorphine mean plasma concentration” value (4.25 h) was 0.535 ng/mL, the “Buprenorphine mean plasma concentration” value (6.25 h) was 0.453 ng/mL and the “Buprenorphine mean plasma concentration” value (12.25 h) was 0.237 ng/mL.
